Data: US20160158307A1, “Potent and Efficient Cytotoxic Peptides and Antibody-Drug Conjugates thereof and Their Synthesis” (priority 2014, published 2016)

Key:
Type in all cases: cell-based, Human
HCC1954 = assay: In vitro cell assay (Cell Titer Glo), HCC1954; conditions: Table 3; payloads and related ADCs; 6 days exposure; Her2 positive
Procedure: (§1) In vitro cell assay is performed in a 96 well micro titer plate. Human tumor cell lines Hela, A549, MCF-7, HCC-1954 and SK-BR-3 are obtained from ATCC (American Type Culture Collection).
The cells were harvested respectively during the logarithmic growth period and counted with hemocytometer. The cell viability was over 98% by trypan blue exclusion. 90 μl of cell suspensions were added in to 96-well plates, the final cell density was reached to 3000 cells/well. […]
(§2) To each well was added 10 μL, of DMSO diluted compound (10×). For the sentinel base T0 plate, to each well was added 100 μL Cell Titer Gloand the luminescence signals with Envision reading were recorded.
(§3) […] Plates are read with Envision after adding Cell Titer Glo to each well. IC50 values were calculated using GraphPad Prism 5.

MCF-7 = assay: In vitro cell assay (Cell Titer Glo), MCF-7; conditions: Table 3; payloads and related ADCs; 6 days exposure; does not over-express Her2
Procedure: as §1
(§4) The cells were harvested respectively during the logarithmic growth period and counted with hemocytometer. The cell viability was over 98% by trypan blue exclusion. 90 μl of cell suspensions were added in to 96-well plates, the final cell density was reached to 3000 cells/well. Plates were incubated for 96 hours at 37° C., and 5% CO2.
as §2, §3

SK-BR-3 = assay: In vitro cell assay (Cell Titer Glo), SK-BR-3; conditions: Table 3; payloads and related ADCs; 6 days exposure; Her2 positive
Procedure: as §1, §4, §2, §3

Substance: H-vcMMAE: ADC of Herceptin (Trastuzumab) with vc linker and MMAE [reference compound]
- IC50 (HCC1954): 0.094 nM
- IC50 (MCF-7): 43.7 nM
- IC50 (SK-BR-3): 0.017 nM
